{
  "source": "patent US10206402B2",
  "about": "“Environmentally-friendly emamectin benzoate preparation and preparation method therefor” (NANJING SCIENX BIOLOGICAL TECHNOLOGY CO., LTD, priority 2014, dated 2019)",
  "origin": "cited, not measured here",
  "conditions": "in water; 25° C.",
  "data": [
    {"substance": "Emamectin benzoate", "values": [
      {"measurement": "water solubility", "result": "about 0.024 g/L"}
    ]}
  ]
}
